The values below come from ChEMBL document CHEMBL1687735, “Resistance to colistin in Acinetobacter baumannii associated with mutations in the PmrAB two-component system” (Antimicrob Agents Chemother, 2009).

For test [1], the system named is Acinetobacter baumannii. The settings on record: AB0057.
The test system of test [2] is Acinetobacter baumannii. Particulars: ATCC 17978.
Test [3] deals with Acinetobacter baumannii. Particulars: ATCC 17978. This is another data set of the same source.
Test [4] deals with Acinetobacter baumannii. The settings on record: AB0057. The source holds these as a separate data set.
The test system of test [5] is Acinetobacter baumannii. The settings on record: ATCC 17978. This is another data set of the same source.
Test [6] has as its system Acinetobacter baumannii. The settings on record: ATCC 17978. The source holds these as a separate data set.
The test system of test [7] is Pseudomonas aeruginosa. Particulars: ATCC 27853.
Test [8] concerns Pseudomonas aeruginosa. Particulars: ATCC 27853. This is another data set of the same source.
In test [9] the test system is Acinetobacter baumannii. Particulars: AB0057. The source holds these as a separate data set.
The subject of test [10] is Acinetobacter baumannii. Particulars: AB0057. This is another data set of the same source.
In test [11] the test system is Acinetobacter baumannii. The settings on record: ATCC 17978. This is another data set of the same source.
The subject of test [12] is Acinetobacter baumannii. The settings on record: AB0057. The source holds these as a separate data set.
In test [13] the test system is Acinetobacter baumannii. The settings on record: ATCC 17978. The source holds these as a separate data set.
For test [14], the system named is Pseudomonas aeruginosa. Particulars: ATCC 27853. The source holds these as a separate data set.
Test [15] relates to Acinetobacter baumannii. Particulars: AB0057. This is another data set of the same source.
In test [16] the test system is Pseudomonas aeruginosa. Particulars: ATCC 27853. The source holds these as a separate data set.
Test [17] has as its system Acinetobacter baumannii. The settings on record: AB0057, 1.4 ug/ml.

By MIC is commonly meant the smallest concentration in the dilution series that meets the test's criterion for growth inhibition.

As to COLISTIN SULFATE, the MIC in the test on Acinetobacter baumannii [1] is 1.5 µg/mL; against Acinetobacter baumannii [2], 1 µg/mL; in the test on Acinetobacter baumannii [3], 0.25 µg/mL; with Acinetobacter baumannii [4], 64 µg/mL; in the test with Acinetobacter baumannii [5] it was 0.5 µg/mL; against Acinetobacter baumannii [6] it was 64 µg/mL. Further, the MIC against Pseudomonas aeruginosa [7] came out at 1 µg/mL; against Pseudomonas aeruginosa [8], 0.25 µg/mL; in the test with Acinetobacter baumannii [9], 0.25 µg/mL; against Acinetobacter baumannii [10], 0.5 µg/mL; against Acinetobacter baumannii [11], 0.75 µg/mL; against Acinetobacter baumannii [12] it was 1 µg/mL. Moreover, the MIC was 2 µg/mL in the test on Acinetobacter baumannii [13], 0.25 µg/mL against Pseudomonas aeruginosa [14], 1 µg/mL against Acinetobacter baumannii [15] and 2 µg/mL in the test on Pseudomonas aeruginosa [16]. Further, the T1/2 with Acinetobacter baumannii [17] was determined as 5 min.
